# Values of other authors, collected in patent US10350210B2, “EGFR and ALK dual inhibitor” (PRECEDO PHARMACEUTICALS CO., LTD, priority 2015, dated 2019).
# Test system: cancer patients with ALK translocation
# Details: phase I study; cited from earlier work
compound,measurement,value
"C[C@@H](Oc1cc(-c2cnn(C3CCNCC3)c2)cnc1N)c1c(Cl)ccc(F)c1Cl [Crizotinib, reference compound]",disease control rate,90%
same,overall response rate,57%
